# Read-outs that look alike come from different tables or passages of the source.
# Conditions: mean ± SD of 8 subjects with stage 3–4 chronic kidney disease
compound,measurement,setting,value
"O=C(O)CNC(=O)c1ccccc1[131I] [^131I-OIH, ^131I-o-iodohippuran]","Clearance, mean ± SD",,171 mL/min/1.73 m^2
same,"Clearance, mean ± SD",listed as OIH,171 ± 66 mL/min/1.73 m^2

# From PMC3989841 (Journal of nuclear medicine : official publication, Society …, 2013)
